The species named for one assay is Homo sapiens. The assay is described as follows: Inhibition of TEAD/YAP (unknown origin) at 20 uM measured after 24 hrs by luminescence based renilla luciferase reporter assay relative to control. (In general: In a reporter assay the amount or activity of a reporter protein is the signal.)
Assay [1] has as its target T1, Ubiquitin carboxyl-terminal hydrolase 10 (Homo sapiens, UniProt Q14694). The assay is described as follows: Inhibition of human USP10 deubiquitinase activity using Ubiquitin 7-amino-4-carbamoylmethylcoumarin as substrate at 20 uM preincubated for 30 mins followed by substrate addition and measured after 30 mins by fluorometric assay relative to control. To be noted: time 60.0 min.

By UniProt entry, the sequences of proteins in these tests, tags left out.
UniProt Q14694, whole entry: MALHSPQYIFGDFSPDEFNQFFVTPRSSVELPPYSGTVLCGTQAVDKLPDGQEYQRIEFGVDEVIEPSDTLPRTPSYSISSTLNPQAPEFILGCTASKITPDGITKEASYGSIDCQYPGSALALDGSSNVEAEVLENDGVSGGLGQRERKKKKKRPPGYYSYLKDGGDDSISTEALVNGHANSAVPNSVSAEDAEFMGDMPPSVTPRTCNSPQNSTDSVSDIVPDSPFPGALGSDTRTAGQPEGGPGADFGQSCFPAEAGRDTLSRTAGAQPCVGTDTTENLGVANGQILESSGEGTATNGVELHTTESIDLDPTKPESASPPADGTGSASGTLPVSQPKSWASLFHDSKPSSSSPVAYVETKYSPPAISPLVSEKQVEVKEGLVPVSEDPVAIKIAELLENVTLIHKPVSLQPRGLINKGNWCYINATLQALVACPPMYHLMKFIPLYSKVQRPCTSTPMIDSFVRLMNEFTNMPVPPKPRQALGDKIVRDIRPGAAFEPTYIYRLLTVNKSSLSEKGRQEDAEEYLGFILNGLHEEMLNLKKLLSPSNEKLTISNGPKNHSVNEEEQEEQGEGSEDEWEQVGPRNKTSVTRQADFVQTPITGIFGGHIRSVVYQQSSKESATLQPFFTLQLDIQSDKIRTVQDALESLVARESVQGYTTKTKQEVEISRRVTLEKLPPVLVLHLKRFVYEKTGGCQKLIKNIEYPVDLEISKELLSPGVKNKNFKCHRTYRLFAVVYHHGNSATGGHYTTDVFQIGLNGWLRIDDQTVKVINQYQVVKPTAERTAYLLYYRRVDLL

For assay [2], the target named is T1, Ubiquitin carboxyl-terminal hydrolase 10. The assay is described as follows: Inhibition of USP10 in human Bel-7402 cells assessed as induction of YAP degradation by Western blot analysis. Format: cell-based. The conditions noted are these: dose 2.5-20 µM. For orientation: Immunoblotting shows a protein as a band on a membrane.
For assay [3] the target is unchanged. In words: Inhibition of human USP10 deubiquitinase activity using Ubiquitin 7-amino-4-carbamoylmethylcoumarin as substrate at 10 uM preincubated for 30 mins followed by substrate addition and measured after 30 mins by fluorometric assay. The conditions noted are these: time 60.0 min.

Structures are written as SMILES. Activity calls are given as the source filed them. No cut-off for these calls is given here.

One may read the inhibition as the drop in the measured response relative to a control, in per cent. As for `Cc1ccc2c(=O)c(C(=O)c3cccc(Cl)c3)cn(CC(=O)Nc3ccccc3F)c2n1`, the inhibition result (in the assay filed under Homo sapiens; in assay [1]) was “inactive” throughout.

Regarding `Cc1ccc2c(=O)c(-c3nc(-c4ccccc4C)no3)cn(CC(=O)Nc3c(F)cccc3F)c2n1`, the inhibition in the assay listed under Homo sapiens is 80.9%; in assay [1], 63.8%; in assay [2] it was “Dose-Dependent Effect”.

Turning to `COC(=O)c1ccccc1NC(=O)Cn1cc(-c2nc(-c3cccc(F)c3)no2)c(=O)c2ccc(C)nc21`, the inhibition entry (in the assay filed under Homo sapiens; in assay [1]) was “inactive” throughout.

As to `CCn1nc(C)c2c1c(=O)n(Cc1ccccc1)c(=O)n2CC(=O)Nc1cccc(C(C)=O)c1`, the inhibition entry in the assay filed under Homo sapiens was “inactive”. This compound returned an inhibition in assay [1] of 10.1%.

As to `Cc1ccc2c(=O)c(S(=O)(=O)c3cccc(F)c3)cn(CC(=O)Nc3ccccc3F)c2n1`, the inhibition result (in the assay listed under Homo sapiens; in assay [1]) was “inactive” in each case.

In the case of `Cc1ccc2c(=O)c(-c3nc(-c4ccccc4C)no3)cn(CC(=O)NCc3ccc(F)cc3)c2n1`, the inhibition was 32.1% in the assay filed under Homo sapiens and 45.8% in assay [1].

With `CC(=O)c1cccc(NC(=O)Cn2cc(-c3nc(-c4cccc(C)c4)no3)c(=O)c3ccc(C)nc32)c1`, the inhibition is 40.3% in the assay listed under Homo sapiens and 54.6% in assay [1].

Turning to `COc1ccc(-c2noc(-c3cn(CC(=O)Nc4ccc(F)cc4F)c4nc(C)ccc4c3=O)n2)cc1`, the inhibition in the assay listed under Homo sapiens is 52.4%; in assay [1], 89.5%.

For the compound `CCn1nc(C)c2nc(SCC(=O)Nc3cccc(C(C)=O)c3)n(Cc3ccc(C)cc3)c(=O)c21`, the inhibition result in the assay listed under Homo sapiens is “inactive”. The inhibition in assay [1] came out at 31.8%.

On to `CC(=O)c1cccc(NC(=O)Cn2ccn3nc(-c4ccc(C)cc4)cc3c2=O)c1`, for which the inhibition result in the assay listed under Homo sapiens was “inactive”. In addition, the inhibition in assay [1] is 33.5%.

On to `Cc1ccc2c(=O)c(-c3nc(-c4ccccc4C)no3)cn(CC(=O)NCCc3ccc(Cl)cc3)c2n1`, for which the inhibition in the assay listed under Homo sapiens turned out to be 69.5%; in assay [1] it was 83.4%.

`COc1ccc(NC(=O)Cn2cc(-c3nc(-c4ccccc4C)no3)c(=O)c3ccc(C)nc32)cc1Cl`: the inhibition result in the assay filed under Homo sapiens is “inactive”. This compound also displayed an inhibition in assay [1] of 2.4%.

For the compound `CC(=O)c1cccc(NC(=O)Cn2nc3c4cc(-c5ccc(C)c(C)c5)nn4ccn3c2=O)c1`, the inhibition entry in the assay listed under Homo sapiens was “inactive”. Further, the inhibition in assay [1] is 42.6%.

For `Cc1ccccc1-c1noc(-c2sc3ncn(CC(=O)Nc4ccccc4Cl)c(=O)c3c2C)n1`, the inhibition result in the assay filed under Homo sapiens is “inactive”. The compound further returned an inhibition in assay [1] of 35.2%.

As for `Cc1ccc2c(=O)c(-c3nc(-c4cccc(F)c4)no3)cn(CC(=O)NCc3ccco3)c2n1`, the inhibition result in the assay filed under Homo sapiens is “inactive”. This compound also yielded an inhibition in assay [1] of 40.5%.

Consider `Cc1ccc2c(=O)c(-c3nc(-c4ccc(Cl)cc4)no3)cn(Cc3cccc(F)c3)c2n1`, for which the inhibition was 41.3% in the assay listed under Homo sapiens and 48.5% in assay [1].

As to `Cc1ccc2c(=O)c(-c3nc(-c4ccccc4C)no3)cn(CC(=O)NC3CCCCC3)c2n1`, the inhibition in the assay filed under Homo sapiens stood at 26.9%; in assay [1] it was 20.8%.

With `Cc1ccc2c(=O)c(-c3nc(-c4ccccc4C)no3)cn(CC(=O)N3CCc4ccccc43)c2n1`, in the assay listed under Homo sapiens, the inhibition result is “inactive”. The inhibition in assay [1] came to 28.1%.

On to `Cc1ccc2c(=O)c(C(=O)Nc3ccccc3C)cn(CC(=O)NCCc3ccc(Cl)cc3)c2n1`, for which the inhibition entry in assay [3] was “Active”.

The values are drawn from ChEMBL document CHEMBL5500382, “Discovery of potent small molecule ubiquitin-specific protease 10 inhibitors with anti-hepatocellular carcinoma activity through regulating YAP expression” (Eur J Med Chem, 2024).
